Experimental data: patent US20220401481A1, “DOSING REGIMENS FOR THE MOBILIZATION OF HEMATOPOIETIC STEM AND PROGENITOR CELLS” (Magenta Therapeutics, Inc., priority 2019, published 2022)

Experiment: Phase 1 clinical trial: treatment emergent adverse events
Settings: Part A; MGTA-145 0.0075-0.3 mg/kg, n = 24

MGTA-145: CXCR2 agonist; truncated Gro-β with deletion of the first four N-terminal amino acids (SEQ ID NO: 2)
Back pain / Musculoskeletal pain: 19 (79.2) n (%)
Subjects with any drug related TEAE: 19 (79.2) n (%)
